Earlier results, collected in US12295943B2 (Closed Loop Medicine Ltd., priority 2023, dated 2025).

Compound: COc1ccc(-n2nc(C(N)=O)c3c2C(=O)N(c2ccc(N4CCCCC4=O)cc2)CC3)cc1 [Apixaban]
- active metabolites in plasma (human, in vivo): no active metabolites
- dose proportionality of plasma exposure (human, in vivo): increases proportionally with dose up to 10 mg
- total exposure with food (with food): unaffected
